Reference: patent US10946023B2, “Therapeutically active compounds and their methods of use” (Agios Pharmaceuticals, Inc., priority 2013, dated 2021)

Test system: HT1080 cells
Assay: HT1080 cellular assay, 2-HG by LC-MS (IDH1 R132C)
Assay type: cell-based
Settings: Homo sapiens, HT-1080
Protocol: The following describes the experimental procedures that can be used to obtain data on column 5 of Table 4.
Cells (HT1080 or U87MG) are grown in T125 flasks in DMEM containing 10% FBS, 1× penicillin/streptomycin and 500 ug/mL G418 (present in U87MG cells only). They are harvested by trypsin and seeded into 96 well white bottom plates at a density of 5000 cell/well in 100 ul/well in DMEM with 10% FBS. No cells are placed in columns 1 and 12. Cells are incubated overnight at 37° C. in 5% CO2. The next day test compounds are made up at 2× the final concentration and 100 ul are added to each cell well. The final concentration of DMSO is 0.2% and the DMSO control wells are plated in row G. The plates are then placed in the incubator for 48 hours. At 48 hours, 100 ul of media is removed from each well and analyzed by LC-MS for 2-HG concentrations. The cell plate is placed back in the incubator for another 24 hours. At 72 hours post compound addition, 10 mL/plate of Promega Cell Titer Glo reagent is thawed and mixed. The cell plate is removed from the incubator and allowed to equilibrate to room temperature. Then 100 ul of Promega Cell Titer Glo reagent is added to each well of media. The cell plate is then placed on an orbital shaker for 10 minutes and then allowed to sit at room temperature for 20 minutes. The plate is then read for luminescence with an integration time of 500 ms. […]

## C[C@@H](Nc1cc(N[C@H](C)C2CC2)nc(-c2cccc(C(F)(F)F)n2)n1)C1CC1 [Compound 414]
  IC50: 100 to 1000 nM
